This is an account of results in ChEMBL document CHEMBL4732113, “Exploiting the tolerant region I of the non-nucleoside reverse transcriptase inhibitor (NNRTI) binding pocket. Part 2: Discovery of diarylpyrimidine derivatives as potent HIV-1 NNRTIs with high Fsp values and favorable drug-like properties” (Eur J Med Chem, 2021).

The nature of the data set: Selectivity index, ratio of CC50 for human MT4 cells to EC50 for antiviral activity against HIV 3B infected in human MT4 cells. The conditions noted are these: read-out: Ratio CC50/EC50. It counts as toxicity, cell-based.

Regarding `Cc1cc(C#N)cc(C)c1Oc1nc(Nc2ccc(C#N)cc2)nc(N)c1Br` [ETRAVIRINE], the selectivity ratio was greater than 1100.
